Here are results for one molecule from paper PMC12095788, “Structural and mechanistic profiling of Nurr1 modulation by vidofludimus enables structure-guided ligand design” (Communications Chemistry, 2025).

Protein sequences, listed by entry. Tags and fused reporters are not part of them. Residues count along the entry.
UniProt P43354, 360-595 I500F limits assumed: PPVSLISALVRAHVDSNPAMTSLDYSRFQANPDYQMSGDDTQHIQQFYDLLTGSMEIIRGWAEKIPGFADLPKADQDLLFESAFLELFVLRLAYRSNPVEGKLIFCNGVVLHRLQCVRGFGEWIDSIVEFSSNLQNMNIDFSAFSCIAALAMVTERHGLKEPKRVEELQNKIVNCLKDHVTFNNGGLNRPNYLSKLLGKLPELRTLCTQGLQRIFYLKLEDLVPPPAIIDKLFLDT
UniProt P43354, 360-595 H372F limits assumed: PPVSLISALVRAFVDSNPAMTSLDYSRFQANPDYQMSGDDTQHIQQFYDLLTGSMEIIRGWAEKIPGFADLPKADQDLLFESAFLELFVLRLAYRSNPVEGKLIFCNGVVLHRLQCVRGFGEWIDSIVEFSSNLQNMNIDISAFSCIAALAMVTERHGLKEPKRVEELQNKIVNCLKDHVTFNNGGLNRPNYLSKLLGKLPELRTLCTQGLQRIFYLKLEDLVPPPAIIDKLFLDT
UniProt P43354, 360-595 V373W/I500W limits assumed: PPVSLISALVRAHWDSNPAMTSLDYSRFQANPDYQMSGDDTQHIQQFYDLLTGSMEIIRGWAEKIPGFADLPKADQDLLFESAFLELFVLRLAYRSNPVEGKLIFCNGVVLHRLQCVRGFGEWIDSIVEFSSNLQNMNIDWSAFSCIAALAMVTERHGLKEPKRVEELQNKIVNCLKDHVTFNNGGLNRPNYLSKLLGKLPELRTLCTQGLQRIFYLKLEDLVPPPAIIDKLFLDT
UniProt P43354, 364-598: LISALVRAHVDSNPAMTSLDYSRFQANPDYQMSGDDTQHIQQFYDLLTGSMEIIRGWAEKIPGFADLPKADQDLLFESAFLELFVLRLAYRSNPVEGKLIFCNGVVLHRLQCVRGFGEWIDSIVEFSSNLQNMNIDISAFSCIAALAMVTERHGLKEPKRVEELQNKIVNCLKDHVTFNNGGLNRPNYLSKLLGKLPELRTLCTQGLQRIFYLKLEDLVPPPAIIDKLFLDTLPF
UniProt P43354, 360-595 limits assumed: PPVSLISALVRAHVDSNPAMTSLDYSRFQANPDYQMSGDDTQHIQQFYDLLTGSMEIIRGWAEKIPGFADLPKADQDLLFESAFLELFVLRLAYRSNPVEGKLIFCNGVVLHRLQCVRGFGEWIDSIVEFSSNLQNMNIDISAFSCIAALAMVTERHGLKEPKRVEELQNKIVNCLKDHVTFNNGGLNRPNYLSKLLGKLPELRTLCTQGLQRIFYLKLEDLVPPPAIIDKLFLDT
UniProt P43354, 360-595 L570F limits assumed: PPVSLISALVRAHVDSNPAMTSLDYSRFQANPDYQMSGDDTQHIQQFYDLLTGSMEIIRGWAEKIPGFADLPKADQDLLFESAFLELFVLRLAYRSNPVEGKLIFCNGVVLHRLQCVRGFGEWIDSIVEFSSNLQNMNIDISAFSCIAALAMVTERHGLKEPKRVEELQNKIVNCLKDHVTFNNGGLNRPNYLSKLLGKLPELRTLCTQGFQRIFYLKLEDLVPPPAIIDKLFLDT
UniProt P43354, 360-595 L444F limits assumed: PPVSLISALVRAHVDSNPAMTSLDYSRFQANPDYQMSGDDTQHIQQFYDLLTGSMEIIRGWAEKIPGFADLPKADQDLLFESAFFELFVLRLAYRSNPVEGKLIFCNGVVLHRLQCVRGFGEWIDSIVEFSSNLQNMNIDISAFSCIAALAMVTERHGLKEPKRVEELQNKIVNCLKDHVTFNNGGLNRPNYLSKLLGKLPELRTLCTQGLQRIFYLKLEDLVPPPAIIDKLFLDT
UniProt P43354, 360-595 Q571W limits assumed: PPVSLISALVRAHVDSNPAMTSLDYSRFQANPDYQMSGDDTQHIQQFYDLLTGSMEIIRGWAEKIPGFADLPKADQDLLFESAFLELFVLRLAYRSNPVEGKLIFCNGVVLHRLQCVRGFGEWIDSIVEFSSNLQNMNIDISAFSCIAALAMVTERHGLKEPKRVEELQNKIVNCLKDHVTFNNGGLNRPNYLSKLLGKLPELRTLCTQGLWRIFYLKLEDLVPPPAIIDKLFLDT
UniProt P43354, 360-595 L559F limits assumed: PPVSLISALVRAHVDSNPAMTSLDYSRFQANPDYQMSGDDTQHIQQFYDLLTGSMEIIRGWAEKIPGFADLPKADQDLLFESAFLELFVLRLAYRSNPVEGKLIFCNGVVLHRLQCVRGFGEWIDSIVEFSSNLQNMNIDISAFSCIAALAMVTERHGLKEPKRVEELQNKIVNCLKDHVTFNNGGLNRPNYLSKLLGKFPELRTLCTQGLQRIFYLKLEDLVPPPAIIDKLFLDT
UniProt P43354, 360-595 I506F limits assumed: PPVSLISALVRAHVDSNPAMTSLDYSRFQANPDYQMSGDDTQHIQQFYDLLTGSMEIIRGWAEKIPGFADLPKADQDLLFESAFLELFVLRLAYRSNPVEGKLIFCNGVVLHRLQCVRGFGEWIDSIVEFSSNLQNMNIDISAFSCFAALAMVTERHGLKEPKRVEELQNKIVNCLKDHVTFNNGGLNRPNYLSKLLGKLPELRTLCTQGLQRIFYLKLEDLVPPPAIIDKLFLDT
UniProt P43354, 360-595 I500W limits assumed: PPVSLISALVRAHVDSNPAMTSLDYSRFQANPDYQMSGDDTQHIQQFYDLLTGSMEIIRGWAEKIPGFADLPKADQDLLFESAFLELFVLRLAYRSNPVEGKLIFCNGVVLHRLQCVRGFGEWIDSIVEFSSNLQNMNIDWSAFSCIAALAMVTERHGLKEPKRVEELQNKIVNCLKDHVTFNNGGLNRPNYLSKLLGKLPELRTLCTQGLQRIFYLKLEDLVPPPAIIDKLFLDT

Entries after “also recorded” stand apart in the source; their conditions may differ.

For orientation: EC50 means the concentration that produces a half-maximal response. What is called IC50 is the point on the concentration scale where inhibition reaches its midpoint. The koff is the rate constant with which the complex falls apart.

For one assay, the target named is T1, Gal4-Nurr1 I500F (Homo sapiens, UniProt P43354, I500F).
T1 construct: expressed in transfected cells; host or cells: HEK293T
Briefly: Gal4-Nurr1 hybrid reporter gene assay, mutant I500F. It is filed as cell-based. A general note: A reporter such as luciferase makes a cellular process visible.

For a further assay, the target named is T2, Gal4-Nurr1 H372F (Homo sapiens, UniProt P43354, H372F).
T2 construct: expressed in transfected cells; host or cells: HEK293T
Briefly: Gal4-Nurr1 hybrid reporter gene assay, mutant H372F. The assay is classed as cell-based.

For a further assay, the target named is T3, Gal4-Nurr1 I500W/V373W (Homo sapiens, UniProt P43354, I500W/V373W).
T3 construct: expressed in transfected cells; host or cells: HEK293T
The experiment in a line: Gal4-Nurr1 hybrid reporter gene assay, double mutant I500W/V373W. As to conditions: fold reporter activation vs. DMSO. The assay is classed as cell-based.

The target of the next assay is T4, Nurr1 LBD - NCOR1 (Homo sapiens, UniProt P43354).
T4 construct: a plasmid construct encoding Nurr1 (aa 364-598) in a pMal vector system; MBP (cleaved yes); made in house; host or cells: E. coli BL21-R3-pRARE2
Briefly: HTRF co-regulator recruitment assay, NCOR1. It is filed as biochemical. As to conditions: fluorescein labeled corepressor peptide, read-out: IC50 NCOR1 displacement from Nurr1 LBD.

The target in a further assay is T5, Nurr1 LBD - SMRT (Homo sapiens, UniProt P43354).
T5 construct: a plasmid construct encoding Nurr1 (aa 364-598) in a pMal vector system; MBP (cleaved yes); made in house; host or cells: E. coli BL21-R3-pRARE2
The experiment in a line: HTRF co-regulator recruitment assay, SMRT. The assay is classed as biochemical. On the technique in general: TR-FRET usually uses a lanthanide donor and a delayed reading to cut background.

The next assay addresses T6, Nurr1 LBD - PIASγ (Homo sapiens, UniProt P43354).
T6 construct: a plasmid construct encoding Nurr1 (aa 364-598) in a pMal vector system; MBP (cleaved yes); made in house; host or cells: E. coli BL21-R3-pRARE2
Briefly: HTRF co-regulator recruitment assay, PIASγ. The assay is classed as biochemical.

In the next assay the target is T7, Nurr1 LBD - NRIP (Homo sapiens, UniProt P43354).
T7 construct: a plasmid construct encoding Nurr1 (aa 364-598) in a pMal vector system; MBP (cleaved yes); made in house; host or cells: E. coli BL21-R3-pRARE2
Briefly: HTRF co-regulator recruitment assay, NRIP. It is filed as biochemical.

Another assay deals with T8, Nurr1 LBD - NCoA6 (Homo sapiens, UniProt P43354).
T8 construct: a plasmid construct encoding Nurr1 (aa 364-598) in a pMal vector system; MBP (cleaved yes); made in house; host or cells: E. coli BL21-R3-pRARE2
Briefly: HTRF co-regulator recruitment assay, NCoA6. The assay is classed as biochemical.

The next assay has as its target T9, Nurr1 LBD - CoREST (Homo sapiens, UniProt P43354).
T9 construct: sGFP-Nurr1[26]; LBD as FRET acceptor; made in house
The experiment in a line: HTRF co-regulator recruitment assay, CoREST. It is filed as biochemical.

In the next assay the target is T10, Nurr1 LBD - Lmx1b (Homo sapiens, UniProt P43354).
T10 construct: sGFP-Nurr1[26]; LBD as FRET acceptor; made in house
Briefly: HTRF co-regulator recruitment assay, Lmx1b. It is filed as biochemical.

Another assay deals with Nurr1 LBD - SRC-1 (Homo sapiens, UniProt P43354).
The target in assay [1] is Gal4-Nurr1 (wt human Nurr1 LBD) (Homo sapiens, UniProt P43354). To be noted: maximum activation; cited from earlier work.
Another assay deals with Gal4-Nurr1 L570F (Homo sapiens, UniProt P43354, L570F). The experiment in a line: cell-based.
The target in a further assay is Gal4-Nurr1 L444F (Homo sapiens, UniProt P43354, L444F). Briefly: cell-based.
The next assay addresses Gal4-Nurr1 Q571W (Homo sapiens, UniProt P43354, Q571W). Briefly: cell-based.
In a further assay the target is Gal4-Nurr1 L559F (Homo sapiens, UniProt P43354, L559F). The experiment in a line: cell-based.
The next assay has as its target Gal4-Nurr1 I506F (Homo sapiens, UniProt P43354, I506F). The experiment in a line: cell-based.
For a further assay, the target named is Gal4-Nurr1 I500W (Homo sapiens, UniProt P43354, I500W). Briefly: cell-based.
Assay [2] has as its target T11, Nurr1 LBD - RXRα LBD heterodimer (Homo sapiens, UniProt P43354). Briefly: ITC Nurr1-RXR dimerization. To be noted: ITC stoichiometry, ligand 200 µM.
Assay [3] addresses T11, Nurr1 LBD - RXRα LBD heterodimer. Briefly: HTRF Nurr1-RXRα heterodimer formation assay. Set-up: a plasmid construct encoding Nurr1 (aa 364-598) in a pMal vector system; MBP (cleaved yes); made in house; host or cells: E.coli BL21-R3-pRARE2 (biotinylated Nurr1 LBD). It is filed as biochemical.
For the next assay, the target named is Nurr1 LBD (wt) (Homo sapiens, UniProt P43354). The experiment in a line: Binding kinetics by biolayer interferometry (BLI). Set-up: For generation of biotinylated Nurr1 a plasmid construct encoding Nurr1 (aa 364-598) in a pMal vector system; MBP (cleaved yes); made in house; host or cells: E.coli BL21-R3-pRARE2. Background: Biolayer interferometry detects binding as a change in optical thickness at a sensor tip.

For the molecule `COc1cccc(-c2ccc(NC(=O)C3=C(C(=O)O)CCC3)c(F)c2)c1` [vidofludimus], the EC50 on Gal4-Nurr1 I500F is 140 ± 20 nM; on Gal4-Nurr1 H372F it was 130 ± 10 nM; at Gal4-Nurr1 L570F it was 410 ± 80 nM; at Gal4-Nurr1 L444F it was 220 ± 80 nM; on Gal4-Nurr1 Q571W it was 120 ± 10 nM; on Gal4-Nurr1 L559F, 220 ± 30 nM. Further, the EC50 on Gal4-Nurr1 I506F turned out to be 230 ± 50 nM; on Gal4-Nurr1 I500W, 200 ± 20 nM. Moreover, the “activation of Gal4-Nurr1 double mutant I500W/V373W” value was “complete loss of activation” on Gal4-Nurr1 I500W/V373W and “failed to activate” on Gal4-Nurr1 I500W/V373W (listed as Vidofludimus). The IC50 at Nurr1 LBD - NCOR1 came to 10000 ± 3000 nM; on Nurr1 LBD - SMRT, 8000 ± 1000 nM; against Nurr1 LBD - PIASγ, 12000 ± 2000 nM; on Nurr1 LBD - NRIP, 14000 ± 3000 nM; at Nurr1 LBD - NCoA6, 9000 ± 2000 nM. Further, on Nurr1 LBD - CoREST, the “effect on CoREST recruitment to Nurr1 LBD” value is “slightly reduced and weak”. Moreover, the “effect on Lmx1b recruitment to Nurr1 LBD” value on Nurr1 LBD - Lmx1b is given as “no effect; also recorded: no response”. At Nurr1 LBD - SRC-1, the “effect on SRC-1 binding to Nurr1 LBD” value was “neither bound to ligand-free Nurr1 nor in presence of vidofludimus”. The “activation on Nurr1 (efficacy)” value in assay [1] is given as 310%. Further, the “n Nurr1 LBD – RXR LBD” value in assay [2] is 0.79±0.07. In addition, the “effect on Nurr1-RXR heterodimerization” value in assay [3] is listed as “destabilized”. The dissociation rate koff on Nurr1 LBD (wt) (BLI, Nurr1 LBD wt) was determined as 0.233 s⁻¹. Further, at Nurr1 LBD (wt) (read-out: dissociation rate koff, BLI, Nurr1 LBD wt), the koff stood at 0.223 s⁻¹.
